The assay is described as follows: Compound cytotoxicity measured by an ATP content assay as a counter-screen for lead compounds in human astrocytoma cell line (SNB-19). As to conditions: SNB-19 astrocytoma viability, ATP luminescence; at 46.1 µM (top of the series). As to the method:
National Center for Advancing Translational Sciences [NCATS] Johns Hopkins University School of Medicine Florida State University Assay Overview: Many compounds can cause cytotoxicity at high compound concentrations. […] The compound cytotoxicity may also cause side effects or toxicity in human. Thus, the compound cytotoxicity needs to be measured in each cell type and each compound incubation time - same as these in the compound screening assay. The compound cytotoxicity can be measured by cell viability assays such as the ATP content assay. We use an ATP content assay kit for cell viability measurement. It measures ATP content (level) in human astrocytoma cell line (SNB-19) using a luminescence readout that is proportional to viable cell numbers. Decrease in the luminescence signal after the compound treatment indicates reduced cell viability and cell death caused by compound treatment.
Assay Protocol Summary: The medium for SNB-19 cells is composed of RPMI 1640 (ATCC, Cat.# 30-2001), 10% fetal bovine serum (FBS) (GE healthcare Life Sciences, Cat.# SH30071.03), and 1% Pen/Strep (Gibco, Cat.# 15140-122). […] After incubation at room temperature for 10 minutes, the luminescence intensity in assay plates was measured using a ViewLux plate reader (PerkinElmer). […] The percentage inhibitions of the decreased cell viability by small molecules were then calculated that indicate compound cytotoxicity.

The structures appear in SMILES notation. This is a selection; strong and weak results do not stand in their true shares. Records with an inconclusive call do not appear. Active and inactive are the calls of the source. Calls follow the shape of the dose curve; as a rule, active = well fitted cell-killing curve with a large enough effect; inconclusive = small, poorly fitted or top-dose-only effect, or effect the other way; inactive = flat fitted curve, though single readings scatter.

Turning to `CCOP(=O)(CC)Oc1ccc([N+](=O)[O-])cc1` (configuration not stated), the activity change, negative = cytotoxicity is inactive: 20.3%.
With `C/C1=C2N=C(/C=C3N=C(/C(C)=C4\[N-][C@@](C)([C@@H]5N=C1[C@](C)(CCC(=O)NC[C@@H](C)OP(=O)([O-])O[C@H]1[C@@H](O)[C@@H](n6cnc7cc(C)c(C)cc76)O[C@@H]1CO)[C@H]5CC(N)=O)[C@@](C)(CC(N)=O)[C@@H]4CCC(N)=O)[C@@](C)(CC(N)=O)[C@@H]\3CCC(N)=O)C(C)(C)[C@@H]/2CCC(N)=O.[C-]#N.[Co+3]`, the activity change, negative = cytotoxicity was inactive: -8.44%.

(Values after PubChem BioAssay AID1224862 (National Center for Advancing Translational Sciences (NCATS), 2016).)
